These results are taken from patent publication US9359342B2, “Protein disulfide isomerase inhibiting anticancer agents” (THE CLEVELAND CLINIC FOUNDATION, priority 2013, dated 2016).

Protein sequences, listed by entry. Tags and fused reporters are not part of them. Residues count along the entry.
UniProt P07237, 18-508 limits assumed: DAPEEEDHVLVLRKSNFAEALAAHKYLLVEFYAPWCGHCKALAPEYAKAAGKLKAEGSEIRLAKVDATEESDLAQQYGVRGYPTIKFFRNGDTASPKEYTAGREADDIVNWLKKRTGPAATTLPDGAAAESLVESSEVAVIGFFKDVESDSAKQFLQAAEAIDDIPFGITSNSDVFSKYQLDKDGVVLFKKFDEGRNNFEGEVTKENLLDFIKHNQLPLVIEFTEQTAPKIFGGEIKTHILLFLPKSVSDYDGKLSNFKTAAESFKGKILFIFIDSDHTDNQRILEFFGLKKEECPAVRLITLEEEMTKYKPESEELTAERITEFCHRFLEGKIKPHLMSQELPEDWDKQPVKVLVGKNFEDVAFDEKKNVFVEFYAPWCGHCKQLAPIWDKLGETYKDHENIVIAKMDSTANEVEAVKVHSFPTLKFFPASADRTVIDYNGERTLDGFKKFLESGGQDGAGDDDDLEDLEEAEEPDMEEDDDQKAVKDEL

One series concerns the target recombinant PDI (Homo sapiens, UniProt P07237). Nature of the series: PDI activity assay (di-eosin-di-gluthathione, eGSSG). As to the method:
PDI activity assay: The di-eosin-di-gluthathione assay was performed essentially as described (Raturi, A. and Mutus, B Free Radical Biology & Medicine 43; 2007) with the minor modification that we used gluthathione instead of DTT as reducing agent. Briefly, recombinant PDI was incubated with CC642 or analogs in potassium-based assay buffer at 37° C. before reactions were started by addition of gluthathione and di-eosin-di-gluthathione. Release of eosin was measured every 60 seconds for 30 min using excitation/emission filters of 525 nm/545 nm, respectively.
Next, MM1.S cells were treated with B-CCF642 and purified lysates of treated and untreated cells for B-CCF642 binding proteins using streptavidin beads followed by SDS-PAGE and mass spectroscopy for protein sequencing of a band that contained biotin signal. Among 10 proteins that were only recovered from treated cells PDI was the most abundant but HSP70 family members were also recovered. To test whether HSP70 family members were inhibited by CCF642, chaperone assays were performed that tested rearrangement of partially denatured luciferase. […] However, PDI function, as assessed by the eGSSG assay which measures PDI's reducing capacity, was inhibited by CCF642 (table 1). […] To determine whether PDI activity is inhibited in vivo, the inventors performed IRE1-α immunoblots after CCF642 treatment of MM1.S cells. […]

Another series deals with MM1.S. Put plainly: MM1.S myeloma cell viability.

The term IC50 denotes the concentration needed to halve the response being measured. For `COCCOCCOCCN1C(=O)/C(=C/c2ccc([N+](=O)[O-])s2)SC1=S`, the “PDI Activity at 10 μM (%)” value on recombinant PDI (compound at 10 μM) is reported as 23.33%. The IC50 at recombinant PDI (read-out: PDI IC50, recombinant PDI, di-eosin-di-gluthathione assay) stood at 6.62 µM; with MM1.S (read-out: MM1.S IC50, MM1.S myeloma cells), 1.13 µM. For the same molecule, the “MM1.S Viable cells at 6.75 μM (%)” value in the series with MM1.S (compound at 6.75 μM) was found to be 12.63%.
